Experimental findings from patent US7572762B1, “Materials and methods relating to the induction of apoptosis in target cells” (University of Dundee, priority 1998, dated 2009) are described below.

In the test the test system is 293 cells (transformed kidney epithelial cells). Description: FACS (propidium iodide) analysis of apoptosis, 293 cells. The test is classed as cell-based, human.

On to `CN(C(=O)Cc1ccc(Cl)c(Cl)c1)[C@@H]1CCCC[C@H]1N1CCCC1` (relative stereo), for which the “induction of sub-G1 (apoptotic) cells” value (agent alone, 48 hours) is “marked induction”. In addition, the induction of death result (cells transfected with mutant super-repressor IκB) was “fails to induce death”.
